Measured values: patent US10138214B2, “Substituted triazoles and methods relating thereto” (Neurocrine Biosciences, Inc., priority 2015, dated 2018)

What was measured:
MES-induced seizures [1] = assay: Maximal electroshock (MES) test, mice i.p.; details: Mouse (IP), mpk=mg/kg; for MES active at (single dose): single dose at which shown active
MES-induced seizures [2] = assay: Maximal electroshock (MES) test, rats p.o.; details: Rat (PO), mpk=mg/kg; for MES active at (single dose): single dose at which shown active

Structure (SMILES) | MES active at (single dose) (MES-induced seizures [1]) | MES ED50 (MES-induced seizures [2]) | MES ED50 (MES-induced seizures [1]) | MES active at (single dose) (MES-induced seizures [2])
N[C@@H](Cc1ccccc1)C(=O)Nc1cn(Cc2c(F)cccc2F)nn1 [Compound 3a, (2S)-2-amino-N-{1-[(2,6-difluorophenyl)methyl]-1H-1,2,3-triazol-4-yl}-3-phenylpropanamide] | MES active at 100 mpk | MES ED50 25 mpk | – | –
Fc1cccc(F)c1Cn1cc(N2CCCC2)nn1 [Compound 10f, 1-[(2,6-difluorophenyl)methyl]-4-(pyrrolidin-1-yl)-1H-1,2,3-triazole] | – | – | MES ED50 73mpk | MES active at 30 mpk
O=C1CCCN1c1cn(Cc2c(F)cccc2F)nn1 [Compound 14a, 1-{1-[(2,6-difluorophenyl)methyl]-1H-1,2,3-triazol-4-yl}pyrrolidin-2-one] | MES active at 100 mpk | MES ED50 28 mpk | – | –
CNc1cn(Cc2c(F)cccc2F)nn1 | MES active at 100 mpk | – | – | MES active at 30 mpk
N[C@H](Cc1ccccc1)C(=O)Nc1cn(Cc2c(F)cccc2F)nn1 | – | MES ED50 24 mpk | MES ED50 56 mpk | –
OCCNc1cn(Cc2c(F)cccc2F)nn1 | MES active at 30 mpk | – | – | MES active at 30 mpk
O=C(Nc1cn(Cc2c(F)cccc2F)nn1)[C@H]1COCCN1 [Compound 3d, (3R)—N-{1-[(2,6-difluorophenyl)methyl]-1H-1,2,3-triazol-4-yl}morpholine-3-carboxamide] | – | MES ED50 24 mpk | MES ED50 73 mpk | –
O=C(Nc1cn(Cc2c(F)cccc2F)nn1)[C@@H]1COCCN1 [Compound 3c, (3S)—N-{1-[(2,6-difluorophenyl)methyl]-1H-1,2,3-triazol-4-yl}morpholine-3-carboxamide] | – | – | MES ED50 20 mpk | MES active at 15 mpk
CC[C@@H](C(=O)Nc1cn(Cc2c(F)cccc2F)nn1)N1CCCC1=O | MES active at 300 mpk | – | – | –
O=C(CCc1cccc(Cl)c1)Nc1cn(Cc2ccc(F)cc2)nn1 | MES active at 100 mpk | – | – | –
Fc1cccc(F)c1Cn1cc(N2CCOCC2)nn1 [Compound 10a, 4-{1-[(2,6-difluorophenyl)methyl]-1H-1,2,3-triazol-4-yl}morpholine] | – | MES ED50 44 mpk | MES ED50 31 mpk | –
O=C1NCCN1c1cn(Cc2c(F)cccc2F)nn1 [Compound 16a, 1-{1-[(2,6-difluorophenyl)methyl]-1H-1,2,3-triazol-4-yl}imidazolidin-2-one] | – | MES ED50 7 mpk | MES ED50 8 mpk | –
CN(C)c1cn(Cc2ccccc2)nn1 | MES active at 100 mpk | – | – | –
CN(C)c1cn(Cc2c(F)cccc2F)nn1 [Compound 8a, [1-(2,6-difluoro-benzyl)-1H-[1,2,3]triazol-4-yl]-dimethyl-amine] | – | MES ED50 9 mpk | MES ED50 27 mpk | –
CCNc1cn(Cc2c(F)cccc2F)nn1 | MES active at 100 mpk | – | – | MES active at 30 mpk
COC[C@@H](N)C(=O)Nc1cn(Cc2c(F)cccc2F)nn1 | – | – | MES ED50 40 mpk | MES active at 30 mpk
O=C(CCc1cccnc1)Nc1cn(Cc2c(F)cccc2F)nn1 | MES active at 300 mpk | – | – | –
N[C@H](CO)C(=O)Nc1cn(Cc2c(F)cccc2F)nn1 | MES active at 100 mpk | MES ED50 29 mpk | – | –
